Results on 2 molecules are retold here after patent publication US20220362203A1, “METHOD FOR TREATING MOOD DISORDERS” (published 2022).

Experiment [1] relates to C57B6 mice with neuronal damage (MPTP). In words: Deaths of mice with MPTP neuronal damage during the experiment. As to conditions: PD-PAO group of 20 mice, PAO 0.3 mg/kg; 12 died in PD-ctrl group of 20.
The test system of experiment [2] is APP/PS1 mice. Nature of the experiment: Elevated plus maze (EPM) test in APP/PS1 mice. Conditions: 0.3 mg/kg by gavage once a day Monday to Friday from 6 months of age; test at 10 months, 7 days after electric shock; vs wild-type mice.
The test system of experiment [3] is C57B6 mice with neuronal damage (MPTP). Nature of the experiment: Preference for sugar water in mice with MPTP neuronal damage.
The subject of experiment [4] is ICR mice. In words: Novelty-suppressed feeding (NSF) test in wild-type ICR mice. As to conditions: 0.3 mg/kg by gavage every day for 12 days; n=20; placebo 201.6±21.5 s; p<0.05.
Experiment [5] has as its system CUMS rats. In words: Preference for sugar water in chronic unpredictable moderate stress (CUMS) depression rat model. As to conditions: for Effect on preference for sugar water versus model group (in words): after six weeks of administration, P<0.05 or P<0.01 vs model group; for Preference for sugar water (sugar water intake/total fluid intake): n = 10, x ± s.e.m.

In the case of `O=[As]c1ccccc1` (stereo not shown), in experiment [1], the “Mice died during the experiment” value is reported as 6 mice. In addition, the “Percentage of the time spent in the open arm (EPM)” value in experiment [2] is listed as “not significantly different from that of the wild-type mice”. Further, the “Preference for sugar water” value is given as “not significantly different from the blank group” in experiment [3] (PAO 0.3 mg/kg by gavage every day for 7 days in the fourth week, test day 7 of fourth week (FIG. 8A)) and “no significant difference from each other” in experiment [3] (after administration stopped, test day 7 of the sixth week (FIG. 8B)). Besides, in experiment [4], the “Feeding latency (time to start eating, NSF)” value came to 159.6 ± 20.3 s. In addition, the “Effect on preference for sugar water (in words)” value in experiment [5] (PAO 1.5 mg/kg oral) is on record as “can also increase the preference for sugar water”. Further, the “Effect on preference for sugar water versus model group (in words)” value in experiment [5] (PAO 3 mg/kg and 0.75 mg/kg oral) was “can increase the preference for sugar water”. Also, the “Preference for sugar water (sugar water intake/total fluid intake)” value is 0.81 ± 0.21 in experiment [5] (high dose 3.0 mg/kg by gavage once a day, CUMS for 5 weeks); 0.84 ± 0.17 in experiment [5] (high dose 3.0 mg/kg by gavage once a day, CUMS for 6 weeks); 0.9 · in experiment [5] (high dose 3.0 mg/kg by gavage once a day, CUMS for 7 weeks); 0.86 ± 0.10 in experiment [5] (high dose 3.0 mg/kg by gavage once a day, CUMS for 8 weeks); 0.87 ± 0.15 in experiment [5] (low dose 0.75 mg/kg by gavage once a day, CUMS for 5 weeks); 0.88 ± 0.14 in experiment [5] (low dose 0.75 mg/kg by gavage once a day, CUMS for 6 weeks). Moreover, the Preference for sugar water (sugar water intake/total fluid intake) in experiment [5] (low dose 0.75 mg/kg by gavage once a day, CUMS for 7 weeks) was 0.91 ·; in experiment [5] (low dose 0.75 mg/kg by gavage once a day, CUMS for 8 weeks), 0.92 ·; in experiment [5] (medium dose 1.5 mg/kg by gavage once a day, CUMS for 5 weeks), 0.72 ± 0.30; in experiment [5] (medium dose 1.5 mg/kg by gavage once a day, CUMS for 6 weeks), 0.78 ± 0.20; in experiment [5] (medium dose 1.5 mg/kg by gavage once a day, CUMS for 7 weeks), 0.86 ± 0.08; in experiment [5] (medium dose 1.5 mg/kg by gavage once a day, CUMS for 8 weeks), 0.81 ± 0.14. In addition, in experiment [5] (oral PAO compared with venlafaxine by gavage), the “Onset time of antidepressant effect” value was “slightly later than oral administration by gavage of venlafaxine”.
`COc1ccc(C(CN(C)C)C2(O)CCCCC2)cc1` (stereo not shown): the “Preference for sugar water (sugar water intake/total fluid intake)” value in experiment [5] (venlafaxine 15 mg/kg oral once a day, CUMS for 5 weeks) was 0.90 ± 0.08; in experiment [5] (venlafaxine 15 mg/kg oral once a day, CUMS for 6 weeks), 0.94 ·; in experiment [5] (venlafaxine 15 mg/kg oral once a day, CUMS for 7 weeks) it was 0.92 ··; in experiment [5] (venlafaxine 15 mg/kg oral once a day, CUMS for 8 weeks), 0.9 ·. The “Effect on preference for sugar water versus model group (in words)” value in experiment [5] (venlafaxine oral) is “can increase the preference for sugar water”.
